Reference: patent US20140296129A1

By UniProt entry, the sequences of proteins in these tests, tags left out. Residues count along the entry.
UniProt P25101, 21-427: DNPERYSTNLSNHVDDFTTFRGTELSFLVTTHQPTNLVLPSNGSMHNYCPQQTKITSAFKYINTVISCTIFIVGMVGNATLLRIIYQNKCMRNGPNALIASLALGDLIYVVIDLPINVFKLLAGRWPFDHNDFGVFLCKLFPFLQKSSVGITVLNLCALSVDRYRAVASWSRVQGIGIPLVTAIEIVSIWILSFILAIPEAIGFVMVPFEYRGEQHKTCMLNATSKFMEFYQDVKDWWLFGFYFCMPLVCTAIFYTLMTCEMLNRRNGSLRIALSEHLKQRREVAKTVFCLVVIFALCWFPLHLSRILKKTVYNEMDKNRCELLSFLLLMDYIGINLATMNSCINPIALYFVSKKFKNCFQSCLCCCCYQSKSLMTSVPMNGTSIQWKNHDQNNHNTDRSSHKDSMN

Target: endothelin receptor A (ETRA) on human uterine smooth muscle cells (human) (UniProt P25101)
Assay: cell-based or functional assay

contraction of hUtSMC collagen lattices (relative lattice area, % of control without ET-1): 78%
Substance: endothelin-1 (ET-1) (from UniProt P05305 53-73) (peptide)
